The source of these data is US20040058876A1, “Secondary binding site of dipeptidyl peptidase IV (DP IV)” (priority 2002, published 2004).

This data set in a line: Determination of the half-life (t1/2) of DP IV-catalyzed peptide truncation by MALDI-TOF MS. On the procedure: The degradation fate of peptides was measured by monitoring the signal intensity of the pseudomolecular ion peaks of parent peptides and N-terminal shorted peptides versus time when incubated with 40 mU procine DP IV, recombinant human DP IV or serum DP IV activity. […] As control served the preincubation of DP IV with 0.01M Tris-buffer (Sigma-Aldrich, Deisenhofen, Germany). The mass spectrometer employed was a Hewlett-Packard G2025 model with a linear time of flight analyzer; samples (4 μL) were mixed 1:1 v/v with matrix (44 mg diammonium-hydrogen-citrate and 30 mg 2′,6′-dihydroxyacetophenone in 1 ml aqueous solution containing 50% acetonitrile and 0.05% trifluoroacetic acid; Sigma-Aldrich), transferred to a probe tip and immediately evaporated using the Hewlett-Packard G2024A (Hewlett-Packard, Waldbronn, Germany) sample preparation vacuum chamber. 250 single laser-shot spectra were accumulated. […]
The height of the substrate peak was measured and set as 100% at time=0. During the reaction course the sum of substrate and product peak height were set as 100% and the percentage of the remaining substrate peak (also expressed as relative concentration) was determined. Diagrammed relative substrate concentration versus time t1/2 can be calculated based on first order exponential decay reaction course. […]

In the case of `CC[C@H](C)[C@H](NC(=O)[C@H](CO)NC(=O)[C@H](Cc1ccc(O)cc1)NC(=O)[C@H](CC(=O)O)NC(=O)[C@H](CO)NC(=O)[C@@H](NC(=O)[C@H](Cc1ccccc1)NC(=O)[C@@H](NC(=O)CNC(=O)[C@H](CCC(=O)O)NC(=O)[C@H](C)NC(=O)[C@@H](N)Cc1ccc(O)cc1)[C@@H](C)O)[C@@H](C)CC)C(=O)N[C@@H](C)C(=O)N[C@@H](CCSC)C(=O)N[C@@H](CC(=O)O)C(=O)N[C@@H](CCCCN)C(=O)N[C@H](C(=O)N[C@@H](Cc1c[nH]cn1)C(=O)N[C@@H](CCC(N)=O)C(=O)N[C@@H](CCC(N)=O)C(=O)N[C@@H](CC(=O)O)C(=O)N[C@@H](Cc1ccccc1)C(=O)N[C@H](C(=O)N[C@@H](CC(N)=O)C(=O)N[C@@H](Cc1c[nH]c2ccccc12)C(=O)N[C@@H](CC(C)C)C(=O)N[C@@H](CC(C)C)C(=O)N[C@@H](C)C(=O)N[C@@H](CCC(N)=O)C(=O)N[C@@H](CCCCN)C(=O)O)C(C)C)[C@@H](C)CC` [GIP1-30, reference compound], the half-life was found to be 2.68 min.

In general, half-life refers to how long it takes for the measured level to halve. Low readings indicate fast loss, high ones slow loss.
